The text below walks through data of article PMC8817670 (Journal of medicinal chemistry, 2021).

The chains behind the UniProt entries cited, without tags or fusion partners. Residues count along the entry.
UniProt P30536, whole entry: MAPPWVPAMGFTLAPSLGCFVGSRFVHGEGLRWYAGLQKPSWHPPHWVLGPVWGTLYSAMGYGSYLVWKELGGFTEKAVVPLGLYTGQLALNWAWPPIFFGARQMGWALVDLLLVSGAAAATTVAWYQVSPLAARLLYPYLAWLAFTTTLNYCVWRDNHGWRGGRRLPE
UniProt P30536, 2-169: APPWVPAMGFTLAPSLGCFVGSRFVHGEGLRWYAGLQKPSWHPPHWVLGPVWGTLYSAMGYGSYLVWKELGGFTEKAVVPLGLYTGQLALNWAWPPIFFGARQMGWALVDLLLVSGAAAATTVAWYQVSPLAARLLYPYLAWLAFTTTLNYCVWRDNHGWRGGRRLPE

As usually defined, the Ki is a measure of affinity in units of concentration, obtained from inhibition or displacement. Low values mean higher affinity, high ones lower affinity.

Each structure is given as a SMILES string.

Assay [1] has as its target human cerebellum TSPO, HAB genotype (Homo sapiens, UniProt P30536). In words: [3H]PK11195 binding assay, human cerebellum homogenates, HAB genotype.
Assay [2] addresses human cerebellum TSPO, LAB genotype (Homo sapiens, UniProt P30536). As to the kind of experiment: [3H]PK11195 binding assay, human cerebellum homogenates, LAB genotype.
The target in assay [3] is TSPO in human U87MG cells (Homo sapiens, UniProt P30536). In words: [3H]PK11195 displacement binding, human U87MG cell membranes. To be noted: lipE = pKi – logD.
For assay [4], the target named is TSPO in rat kidney (Rattus norvegicus, UniProt P16257). In words: [3H]PK11195 displacement binding, rat kidney membranes. To be noted: lipE = pKi – logD.

For `CCC(C)N(C)C(=O)c1cc2ccccc2c(-c2ccccc2Cl)n1` (stereo not shown) [PK11195, reference compound], the figures for the inhibitory constant (Ki) in assay [1] and in assay [2] were 26.1 ± 18.5 nM and 17.8 ± 20.9 nM, respectively. Further, the “lipE human U87MG” value in assay [3] is 4.57. The same compound displayed a lipE rat kidney in assay [4] of 4.50.
